Laboratory results reported in patent US11970436B2, “Pharmaceutical compositions comprising monoterpenes” (NEONC Technologies, Inc., priority 2010, dated 2024).

Test system: U87 human malignant glioma cells
Settings: MTT; purity increase about 2.6%

In the case of `C=C(C)[C@@H]1CC=C(CO)CC1` [purified POH, (S)-perillyl alcohol], the “increase of cytotoxic property compared to Sigma (S)-perillyl alcohol” value is reported as “about 125%”.
